## Ab-95 light chain CDR variants: yeast mating affinities

Target: peptide PDVDLGDISGINAS, taken from heptad repeat 2 (HR2) of SARS-CoV-2 spike.

The variants keep the heavy chain, the linker and the frameworks of Ab-95 (scFv order VH, the linker GGGGSGGGGSGGGGS, VL).
VH: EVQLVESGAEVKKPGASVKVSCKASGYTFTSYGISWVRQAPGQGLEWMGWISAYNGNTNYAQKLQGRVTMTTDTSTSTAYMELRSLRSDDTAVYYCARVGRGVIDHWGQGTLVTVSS
VL: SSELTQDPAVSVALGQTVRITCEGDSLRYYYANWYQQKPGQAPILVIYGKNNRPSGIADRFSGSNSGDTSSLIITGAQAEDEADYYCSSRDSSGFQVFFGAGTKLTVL

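The parent was found by panning a naive human phage display library on the peptide. In library AAYL52, one, two or three CDR residues were substituted; doubles and triples were drawn at random. In AlphaSeq, yeast of one mating type display the scFv and yeast of the other type display the target. Mating (16 h, 30 °C) was followed by selection of diploids and sequencing of their barcodes. Each replicate has its own calibration line, from reference interactions of the BCL2 family. Each pool was mated in three replicate cultures.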

Positions count from residue 1 of the parent VL; K50M puts M in place of K.
Scale: log10 of Kd in nM, estimated from mating counts; low values are strong binders.
Averages over replicates are reported, and they cover detected replicates only.
Where no diploid with the target was found in any replicate, the entry reads "no signal": below detection, most likely a poor binder, though not proof of it.
Background: pairings of library AAYL52 with three empty control strains gave a value in 28% of cases (median 3.91, 5th percentile 2.90). Values in that range, when seen in few replicates, are hard to tell from nonspecific mating.

mean, log10 nM	replicates with signal	changes
5.11	1 of 3	K50M D91Q S92I
2.53	3 of 3	G24R S55D F95T
3.72	3 of 3	R28A S88V F98G
4.40	1 of 3	L27T Y31C Q96T
4.42	1 of 3	A32Q F95N V97Y
3.31	2 of 3	D25N N52G F98S
3.75	2 of 3	N51V N52M S55H
no signal	0 of 3	N33H N52E S93V
4.99	1 of 3	D25F S93R Q96D
3.31	3 of 3	D25A K50P S93Y
4.08	1 of 3	D25E G49T P54T
4.52	1 of 3	A32F S55C G94D
3.48	3 of 3	R28A Y30C D91N
no signal	0 of 3	R28N N33T S88L
no signal	0 of 3	D25I K50G G94I
4.07	1 of 3	S26E N51D P54W
4.16	1 of 3	Y31V P54K
4.40	3 of 3	K50F P54T S93F
3.84	1 of 3	N51V S92H F95M
1.93	3 of 3	E23Y Y30P K50V
no signal	0 of 3	G24Q R90G G94H
1.52	3 of 3	Y29Q A32P S89Q
no signal	0 of 3	G24T D25V Q96I
3.65	2 of 3	P54A S55Q D91M
4.07	3 of 3	G24I Y30W N33W
2.34	3 of 3	E23R R28L R53L
5.54	1 of 3	L27P Y31R Q96S
3.57	3 of 3	L27I N51D S88C
2.89	3 of 3	Y29D F95T F98A
no signal	0 of 3	N52C R53A
4.04	3 of 3	D25W D91V F98I
3.16	3 of 3	G24C D25E R90I
0.91	3 of 3	Y30G S88Q
2.10	3 of 3	E23Q R53T R90E
3.52	2 of 3	S26T S88I D91E
1.82	3 of 3	Y31P S93F G94I
3.81	3 of 3	G24V Y30I N33Y
no signal	0 of 3	G24A R53W D91S
4.91	1 of 3	N33C K50Y S92D
4.42	1 of 3	N33P P54H S93Y
2.53	3 of 3	K50N F95K
3.72	3 of 3	D25K R53N
3.67	3 of 3	E23W K50W S93M
3.25	3 of 3	K50G S88C R90H
no signal	0 of 3	S88A R90D G94Q
3.35	2 of 3	Y30F N51K F95L
2.44	2 of 3	D91V F95E
2.65	3 of 3	Y29T N51S S88Y
4.55	3 of 3	G49Q N52K R53Q
3.42	1 of 3	Y29F N33F K50Y
3.50	1 of 3	P54M S55Q G94I
4.98	1 of 3	K50S S89R G94I
no signal	0 of 3	G24W Y31G A32F
3.04	3 of 3	E23L S88H F95V
no signal	0 of 3	S26M P54R S89K
4.77	2 of 3	G24L D25A P54S

Repeated from above, the 4 best binders with a signal in all replicates:

changes	mean, log10 nM	replicates with signal
Y30G S88Q	0.91	3 of 3
Y29Q A32P S89Q	1.52	3 of 3
Y31P S93F G94I	1.82	3 of 3
E23Y Y30P K50V	1.93	3 of 3

Source: Engelhart et al. 2022 (doi:10.1038/s41597-022-01779-4), MIT Lincoln Laboratory and A-Alpha Bio; data file from the FLAb repository.